Laboratory results as given in patent publication US20030004318A1.

Target: tumor-associated glycoprotein TAG-72 (human)
Experiment: TAG-72-coated plate assay with 125I goat anti-human IgG probe, Scatchard analysis; mean of 7 analyses

Substance: chimeric CC49 antibody MuVH/MuVK (ATCC HB 9884)
- Ka: 7.62e+09 M⁻¹
